System: dendritic cells
Test: In vitro assay of dendritic cell migration
Type: cell-based
Conditions: cells incubated 24 hours with the fraction or polypeptide, then migration towards MIP-3β; ESAs at final dilution 1:20; index relative to untreated control

B1: SEQ ID NO.13: polypeptide of SEQ ID NO.3 (fragment of GRA5-RH, without the C-terminal threonine) fused with GST (protein)
chain: SPILGYWKIKGLVQPTRLLLEYLEEKYEEHLYERDEGDKWRNKKFELGLEFPNLPYYIDGDVKLTQSMAIIRYIADKHNMLGGCPKERAEISMLEGAVLDIRYGVSRIAYSKDFETLKVDFLSKLPEMLKMFEDRLCHKTYLNGDHVTHPDFMLYDALDVVLYMDPMCLDAFPKLVCFKKRIEAIPQIDKYLKSSKYIAWPLQGWQATFGGGDHPPKSDLIEGRGIPGGSTRDVGSGGDDSEGARGREQQQVQQHEQNEDRSLFERGRAAVTGHPVREFIVTD
modifications: GST fusion; Fusion protein of glutathione S-transferase and amino acids 26-75 of the sequence of GRA5 protein from RH strain of toxoplasma gondii
migration of dendritic cells (migration-inducing activity, migration index): possesses the activity

— US20100160219A1, “Novel Polypeptides Inducing Dendritic Cell Migration, as Well as Medicines and Pharmaceutical Compositions Containing Same” (priority 2006, published 2010)
